Measurements: US20130022620A1, “ASSAYS AND METHODS PERTAINING TO PRE-AMYLOID INTERMEDIATES” (priority 2011, published 2013)

Chains of the proteins cited; added tags and fusions are not shown. Residues count along the entry.
UniProt Q63495, 23-402: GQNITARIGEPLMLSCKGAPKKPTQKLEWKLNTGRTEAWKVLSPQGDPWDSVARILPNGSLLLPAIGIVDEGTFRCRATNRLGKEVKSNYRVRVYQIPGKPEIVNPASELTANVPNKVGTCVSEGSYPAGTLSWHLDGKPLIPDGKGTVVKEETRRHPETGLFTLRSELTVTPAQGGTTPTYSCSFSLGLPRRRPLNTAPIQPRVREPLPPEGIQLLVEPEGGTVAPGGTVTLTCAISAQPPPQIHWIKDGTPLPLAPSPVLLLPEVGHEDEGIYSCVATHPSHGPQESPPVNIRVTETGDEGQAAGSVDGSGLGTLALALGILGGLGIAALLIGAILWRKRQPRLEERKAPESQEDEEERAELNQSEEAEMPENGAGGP

Legend:
[1] = tested on: rat INS-1 β-cells; test: AlamarBlue cell viability assay of β-cells; format: cell-based
Protocol: Transformed rat insulinoma-1 (INS-1) β-cells (which express RAGE) are a pancreatic beta cell line commonly used for studies of h-IAPP induced toxicity. INS-1 cells were grown in RPMI 1640 supplemented with 10% fetal bovine serum (FBS), 11 mM glucose, 10 mM Hepes, 2 mM L-glutamine, 1 mM sodium pyruvate, 50 μM β-mercaptoethanol, 100 U/ml penicillin, and […] streptomycin. Cells were maintained at 37° C./5% CO2.
(§1) Cyto-toxicity was measured by AlamarBlue assay. INS-1 β-cells were seeded at a density of 30,000 cells per well in 96-well plates and cultured for 24 hours prior to stimulation with IAPP. Human and rat IAPP were dissolved and incubated in 16 mM tris HCl (pH 7.4, 25° C.) prior to cell stimulation. AlamarBlue was diluted ten-fold in culture media and cells were incubated for 5 hours at 37° C. Fluorescence (excitation 530; emission 590 nm) was measured on a Beckman Coulter DTX880 fluorescent plate reader. Values calculated were relative to those of control cells treated with buffer only. All values represent means±SEM (n=3).
Changes in cell morphology were examined by light microscopy to provide a second method of evaluating cell viability. Transformed rat INS-1 beta cells were photographed immediately prior to assessment of toxicity by Alamar blue cell viability assays. Images were taken using an Olympus BX-61 light microscope.

[2] = molecular target: T1, h-IAPP (Homo sapiens, UniProt P10997); test: Inhibition of h-IAPP amyloid formation (thioflavin-T, TEM, difference CD); format: biochemical; details: for kinetics of h-IAPP amyloid formation (thioflavin-T): 1:2 molar ratio
T1 sequence (P10997 34-70 limits assumed): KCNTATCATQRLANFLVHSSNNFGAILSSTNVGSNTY
Protocol: Thioflavin-T fluorescence was used to monitor the time course of h-IAPP amyloid formation in the presence and absence of sRAGE. To identify which form(s) of h-IAPP interact with RAGE, sRAGE was added to h-IAPP at various time points during the h-IAPP amyloid formation reaction. Aliquots of the reaction mixture were analyzed by adding 100 uL aliquots of the amyloid formation reaction to 96-well plates containing 8 uL of 60 uM thioflavin-T solution at various incubation times after initiation of the amyloid formation reaction. Fluorescence was measured using a Beckman Coulter DTX880 fluorescent plate reader (excitation: 445 nm and emission: 485 nm). Final solution conditions contained 16 mM tris HCl and 65 μM thioflavin-T (pH 7.4). The peptide concentrations for the kinetic assays were 20 μM h-IAPP or rat IAPP, and 20 μM sRAGE. All values represent means±SEM (n=3).
CD measurements of IAPP, sRAGE and IAPP/sRAGE reactions were taken at various incubation times. Far-UV CD experiments monitor the development of secondary structure of h-IAPP species and give insight into the conformational requirement for IAPP/RAGE-binding. All CD experiments were performed on an Applied Photophysics circular dichroism spectrophotometer by directly transferring 300 μL of peptide solution from kinetic assays into a 0.1 cm quartz cuvette a few minutes prior to data collection. The CD spectra for sRAGE and tris HCl buffer was subtracted from all RAGE/IAPP mixtures. The final far-UV CD data was collected over the range of 190 to 260 nm. Final solution conditions contained 16 mM tris HCl (pH 7.4). The peptide concentrations for the kinetic assays were 20 μM h-IAPP or rat IAPP, and 20 μM sRAGE.
Transient kinetic species of h-IAPP were characterized by TEM. TEM images confirm the presence or absence of amyloid which were indicated by thioflavin-T fluorescence. Aliquots (4 μl) were removed from the reaction mixtures monitored by thioflavin-T assays, placed on a carbon-coated 200-mesh copper grid and negatively stained with saturated uranyl acetate. The samples were imaged with a Philips CM12 transmission electron microscope at the New York University electron microscopy core facility. Final solution conditions contained 16 mM tris HCl (pH 7.4). The peptide concentrations for the kinetic assays were 20 μM h-IAPP and 20 μM sRAGE.

[3] = tested on: MCP-1 and IL-1β mRNA expression; test: qRT-PCR of MCP-1 and IL-1β mRNA in β-cells; format: cell-based, rat
Protocol: Assays for qRT-PCR were carried out in 6-well plates. Total cellular RNA was isolated from h-IAPP stimulated β-cells using Qiagen RNA isolation kit, and the quality of RNA samples was determined by measurement of 260:280 ratio. Only samples with a 260:280 ratio of 2.0 or higher were used for reverse transcription. RNA samples were also treated by RNAse-free DNAse to avoid genomic DNA contamination. One microgram of RNA from each sample was reverse-transcribed to cDNA using MCP-1 and IL-1β primers. Non-template negative controls were also performed to monitor non-specific reactions. RNA isolated from rat IAPP and non-h-IAPP treated beta cells were used as negative controls. Equal amounts of RNA were used in each qRT-PCR reaction, and 18S was used as the internal control for amplification at the same time. qRT-PCR reactions were carried out using an Applied Biosystems 7500 RealTime PCR machine. The relative mRNA contents were normalized using 18S and quantification was carried out using qRT-PCR Quantifier Software.

[4] = tested on: mouse pancreatic islets; test: AlamarBlue cell viability assay of pancreatic islets; format: cell-based; details: sRAGE added to h-IAPP at 1:1 molar ratio
[5] = tested on: mouse aortic smooth muscle cells; test: AlamarBlue cell viability assay of aortic smooth muscle cells; format: cell-based; details: added before time point of toxic species formation
Protocol: as §1, with “Mouse vascular SMCs were cultured from the aortas of 10-week-old male mice using a modification of the procedure of Tarvo and Barret. See Tarvo et al. Blood Vessels. 1980; 17:110-116. SMCs were cultured following an explant protocol in accordance with institutional guidelines. Cultures were composed of 95% SM-α-actin positivity based on immunostaining. Cyto-toxicity” for “Cyto-toxicity”

[6] = molecular target: T2, RAGE (Rattus norvegicus, UniProt Q63495); test: RAGE-block assay in beta cells; format: cell-based; details: 1:1 mixture of sRAGE/hIAPP, cells pre-treated with anti-RAGE IgG
T2 construct: Transformed rat insulinoma-1 (INS-1) β-cells (which express RAGE); endogenous in cells; host or cells: rat INS-1 insulinoma beta cells
Protocol: Beta cells were plated at a density of 30,000 cells per well in 96-well plate the night before the experiment. Cells were pre-treated with either anti-RAGE blocking IgG or control IgG for 2.5 hrs prior to 5 hrs stimulation with 14 uM h-IAPP toxic species or 1:1 mixture of sRAGE/hIAPP (28 micromolar total protein). hIAPP toxic species were produced by incubating a solution of 20 uM IAPP at room temp for 10 hrs. Prevention of formation of hIAPP toxic species was accomplished by reconstituting 20 micromolar dry hIAPP with a solution of 20 micromolar sRAGE.

## sRAGE: soluble extracellular domain of RAGE, SEQ ID NO: 18, made in a baculovirus expression system using Sf9 cells
[1]; added to h-IAPP at 1:1 molar ratio before toxic species formation, 5 hrs incubation
  inhibition of h-IAPP toxicity to β-cells: protects transformed rat INS-1 β-cells from toxicity
[1]; sRAGE alone, 20 uM
  toxicity by itself: is not toxic by itself
[2]; 1:1, added before or at very early time points of toxic species formation, after two weeks of additional incubation
  h-IAPP amyloid formation (TEM): complete inhibition of h-IAPP amyloid formation
[2]; 1:1, added before time points of toxic species formation
  β-sheet formation by h-IAPP (difference CD): inhibition of β-sheet formation by h-IAPP
[2]; 1:1, added to amyloid fibrils
  effect on h-IAPP secondary structure when added to amyloid fibrils: no effect is observed
[2]; 1:1 molar ratio, added before the midpoint of the reaction
  h-IAPP amyloid formation (thioflavin-T, TEM): inhibits amyloid formation
[2]; added after the mid-lag phase
  kinetics of h-IAPP amyloid formation (thioflavin-T): does not prevent amyloid formation
[2]; added before the midpoint of the lag phase
  kinetics of h-IAPP amyloid formation (thioflavin-T): inhibits h-IAPP amyloid formation
[2]; added after time points of toxic species formation
  h-IAPP amyloid formation: no effect on h-IAPP amyloid formation is seen
[2]; added at later time points of toxicity
  h-IAPP beta sheet structure and amyloid formation: significant reductions in h-IAPP beta sheet structure and amyloid formation
[3]; 1:1 molar ratio with h-IAPP, 5 hrs incubation
  effect on MCP-1 and IL-1β mRNA up-regulation induced by h-IAPP intermediates: prevents upregulation of MCP-1 and IL-1β mRNA expression
[3]; sRAGE alone, 20 uM
  MCP-1 and IL-1β mRNA up-regulation by itself: does not induce up-regulation of these pro-inflammatory biomarkers
[4]
  viability restored, relative to buffer control: 80%
  viability restored, relative to sRAGE by itself: 100%
[5]
  inhibition of h-IAPP toxicity to smooth muscle cells: blocks smooth muscle cell toxicity
[6]
  protective effects of sRAGE in the presence of anti-RAGE IgG: are not affected
